Reference: PubChem BioAssay AID540275 (National Center for Advancing Translational Sciences (NCATS), 2011)
“And” between values parts separate entries of the source, which are not always exact repeats. Identical values can stand only once. The list shows a part of the results, in another mix than the full data. Inconclusive results are not listed. The source made the active and inactive calls. No stated cut-off is given here; in the data, active means activation above about 80%; inconclusive means between about 30% and that limit; inactive means weaker than that.

The chains behind the UniProt entries cited, without tags or fusion partners.
UniProt Q8NER1, whole entry, looked up: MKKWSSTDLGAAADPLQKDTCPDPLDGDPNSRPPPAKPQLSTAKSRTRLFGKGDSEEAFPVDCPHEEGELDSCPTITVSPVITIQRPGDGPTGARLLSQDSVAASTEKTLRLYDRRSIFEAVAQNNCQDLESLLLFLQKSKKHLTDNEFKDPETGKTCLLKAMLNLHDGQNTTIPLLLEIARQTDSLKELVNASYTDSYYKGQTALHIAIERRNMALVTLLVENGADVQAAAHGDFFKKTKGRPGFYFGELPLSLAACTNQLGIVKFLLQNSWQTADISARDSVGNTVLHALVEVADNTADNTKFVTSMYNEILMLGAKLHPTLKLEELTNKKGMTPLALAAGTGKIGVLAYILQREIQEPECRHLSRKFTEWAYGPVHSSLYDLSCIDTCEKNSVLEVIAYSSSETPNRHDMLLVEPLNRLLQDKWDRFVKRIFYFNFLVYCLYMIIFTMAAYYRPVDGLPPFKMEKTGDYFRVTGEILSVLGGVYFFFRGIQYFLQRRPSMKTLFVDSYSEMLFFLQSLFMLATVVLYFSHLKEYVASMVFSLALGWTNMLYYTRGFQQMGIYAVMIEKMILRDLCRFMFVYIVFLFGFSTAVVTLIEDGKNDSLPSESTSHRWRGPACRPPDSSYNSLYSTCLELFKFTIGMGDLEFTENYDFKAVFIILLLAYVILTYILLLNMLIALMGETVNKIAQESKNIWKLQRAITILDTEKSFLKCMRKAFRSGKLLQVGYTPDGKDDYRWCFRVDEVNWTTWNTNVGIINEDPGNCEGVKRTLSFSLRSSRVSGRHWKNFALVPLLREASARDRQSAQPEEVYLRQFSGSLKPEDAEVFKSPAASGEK

target: Transient receptor potential cation channel subfamily V member 1 (Homo sapiens) (UniProt Q8NER1); test: HTS Assay for Compounds that Act as Agonists of the Vanilloid Receptor 1; conditions: TRPV1-expressing cells, Fluo-8 calcium influx, agonist mode; at 8.33 µM; active compounds read high; further: 0% is about no effect
From the text: The transient receptor potential ion channel, family V, number 1, (TRPV1) is one of the most important molecular transducers of painful stimuli and a potential target for analgesic drug development. Although recent clinical trials with orthosteric antagonists have not produced a successful drug because of a hyperthermia side effect and their tendency to block thermal noxious pain, this ion channel is undeniably well placed in the pain pathway, and the idea of blocking pain signals before they enter the CNS is an excellent concept and of proven efficacy when TRPV1 agonists are used. We propose a new approach involving allosteric modulation to impose an activity-dependent constraint within the context of inflammation and tissue damage that would alter the responsiveness of the channel in a way that an orthosteric vanilloid antagonist cannot achieve. We believe that the allosteric modulator approach has not been explored for this target. The main goal of this proposal is to identify additional, new, potent allosteric modulators of TRPV1 that can be used to investigate TRPV1 function. Our recent report provides evidence of proof of concept, but the compounds are just at the edge of utility in terms of potency. […] The question of whether they can be used as analgesic agents is complex, but if suitable compounds are identified then testing for analgesic properties will be conducted. NIH Chemical Genomics Center [NCGC] NIH Molecular Libraries Probe Centers Network [MLPCN] MLPCN Grant: MH089480-1A1 Assay Submitter (PI): Michael Iadarola, National Institute of Dental and Cranofacial Research
Upon TRPV1 activation in TRPV1 cells, the channel opens and extracellular cations flow through the channel into the cytosol. A calcium binding dye (Fluo-8) becomes fluorescent when bound to calcium. This dye is pre-loaded into cells and is used as a marker for calcium influx. The amount of accumulated calcium is precisely quantified using the FDSS kinetic reader and the calcium dye. For the HTS assay, freshly prepared cells are plated at a density of 2000/well in 3 ul medium in 1536-well plates and cultured overnight at 35.5C. Cells will be loaded with 1 ul of the homogeneous calcium dye (ABD Bioquest) at room temperature for 40 to 90 minutes. Plates will be loaded into the FDSS kinetic reader and a 1 sec / cycle for 10 second baseline signal will be measured. Compound library will then be added with a pintool at 23 nl and measured kinetically for 3 minutes. This portion of the read is considered the agonist portion of the screen. Following the 3 minutes of incubation, an on board pipettor will deliver 1 ul of capsaicin for a final concentration equal to the EC20. Signal will be measured kinetically for an additional 2 minutes. This portion of the read is considered the allosteric enhancer portion of the screen. The FDSS reader has a standard filter set capable of measuring calcium bound Fluo-8 (ex=480 and em=520 nm).

Row | Structure (SMILES) | activation
1 | Cc1ccc(NP(=O)(Oc2ccccc2F)Oc2ccccc2F)nc1 | inactive: -1.96%
2 | Cc1cc(SC(NC(=O)c2ccc(F)cc2)C(Cl)(Cl)Cl)ncn1 (stereo unspecified) | inactive: -1.69%
3 | CCOP(=O)(Nc1ccccc1)OCC | inactive: -3.38% and inactive: 1.15%
4 | CC(=O)Nc1ccc([As](=O)(O)O)cc1 | inactive: 3.09%
5 | O=C(O)c1ccccc1[As](=O)(O)O | inactive: -2.09%
6 | Nc1cccc2ccc([As](=O)(O)O)cc12 | inactive: 0.489%
7 | CCN(N=Nc1nonc1N)c1nonc1N | inactive: -5.41%
8 | O=[N+]([O-])c1cc([N+](=O)[O-])c(CCN2CCOCC2)c([N+](=O)[O-])c1 | inactive: -1.41%
9 | CN1CCCC(OC(=O)C(c2ccccc2)c2ccccc2)C1 (stereo unspecified) | inactive: 2.35%
10 | Clc1ccc(Cl)c(NC2=NCC(CBr)S2)c1 (stereo unspecified) | inactive: 13.6%
11 | Cc1ccc(OP(=O)(Nc2nccs2)Oc2ccc(C)cc2)cc1 | inactive: 14.8%
12 | COc1ccccc1OP(=O)(Nc1ccc(C)cn1)Oc1ccccc1OC | inactive: 6.11%
13 | Cc1ccc(N/C(=N/P(=O)(N2CCOCC2)N2CCOCC2)N2CCOCC2)cc1 | inactive: 3.66%
14 | CN(C(=O)Cc1ccc(Cl)c(Cl)c1)[C@H]1CCCC[C@H]1N1CCCC1 | inactive: 3.72%
15 | NC(=O)c1cc([N+](=O)[O-])cc([N+](=O)[O-])c1N | inactive: -3.13%
16 | O=C(NC(Sc1ccncn1)C(Cl)(Cl)Cl)c1ccccc1 (stereo unspecified) | inactive: 0.882%
17 | Cc1c2non([O-])c-2c(C)[n+](=O)[n+]1[O-] | inactive: 1.59%
18 | Oc1ccccc1CNc1ccccn1 | inactive: 12.2%

Row | Structure (SMILES) | activation
19 | Nc1cc(N)c2nonc2c1[N+](=O)[O-] | inactive: 0.262%
20 | CCc1nc2c(n1)c1c(non1O)c1c2no[n+]1[O-] | inactive: -0.733%
21 | O=[N+]([O-])c1cc([N+](=O)[O-])c(CCNc2ccccc2)c([N+](=O)[O-])c1 | inactive: -0.35%
22 | Cc1ccc(NP(=O)(Oc2ccccc2)Oc2ccccc2)nc1 | inactive: 12.2%
23 | O=[N+]([O-])c1cccc2n[nH]nc12 | inactive: -0.86%
24 | CC(=O)N1C2C3N(C(C)=O)C1C1N(C(C)=O)C(C(N1C(C)=O)N3C(C)=O)N2C(C)=O | inactive: -4.95%
25 | COc1ccc(C2=NCC(CBr)S2)cc1 (stereo unspecified) | inactive: -2.82%
26 | CC1CCN(C(=O)Oc2c(Cl)cc(Cl)c3cccnc23)CC1 | inactive: 28.3%
27 | CN(C)C(=O)OCCc1n(C)cc[n+]1C | inactive: 1.25%
28 | CC(C)=N/N=C(\N)N[N+](=O)[O-] | inactive: -1.91%
29 | CCN(/C(=N/P(=O)(N1CCOCC1)N1CCOCC1)N1CCOCC1)c1ccc(OC)cc1 | inactive: 1.49%
30 | C[N+]1=C2C=CC=CC=C2SC12C([N+](=O)[O-])=CC([N+](=O)[O-])=C[C-]2[N+](=O)[O-] (stereo unspecified) | inactive: -1.71%
31 | Nc1ccc([As](=O)(O)c2ccc(N)cc2)cc1 | inactive: -0.155%
32 | O=C(Nc1cc([As](=O)(O)O)ccc1O)c1ccccc1 | inactive: 8.7%
33 | O=C(O)CNc1ccc([As](=O)(O)O)cc1 | inactive: 0.808%
34 | O=[N+]([O-])c1cccc(NC2=NCC(CBr)S2)c1 (stereo unspecified) | inactive: -1.87%
35 | O=[N+]([O-])c1ncn(CCn2ncnc2[N+](=O)[O-])n1 | inactive: -4.39%
36 | CC(C)(C)C(=O)NC(Sc1ccncn1)C(Cl)(Cl)Cl (stereo unspecified) | inactive: -1.71%
